Laboratory results taken from publication PMC12586598, “A novel long-acting C5a-blocking cyclic peptide prevents sepsis-induced organ dysfunction via effective blockade of the inflammatory cascade” (Signal Transduction and Targeted Therapy, 2025).

System: C5 cleavage / C5b-dependent terminal MAC formation
Test: Hemolytic assay (mouse serum, hemolysin-opsonized sheep erythrocytes)
Format: biochemical
Settings: absorbance at 540 nm
Experimental: Aliquots of mouse serum were incubated with serially diluted peptides Cp1 or Cp3 (in PBS) at 37 °C for 30 min prior to analysis. The anti-C5 antibody eculizumab (MCE, Shanghai) was selected as the positive control. Hemolysin-opsonized sheep erythrocytes (2% suspension in PBS) were added to the reaction system, followed by 0.5 h of incubation at 37 °C. Hemolytic activity was quantified by measuring the absorbance of the supernatant at 540 nm via a multimode microplate reader (BioTek Synerrgy H1, Agilent, USA).

B1: eculizumab (antibody, chains of the INN, looked up)
heavy: QVQLVQSGAEVKKPGASVKVSCKASGYIFSNYWIQWVRQAPGQGLEWMGEILPGSGSTEYTENFKDRVTMTRDTSTSTVYMELSSLRSEDTAVYYCARYFFGSSPNWYFDVWGQGTLVTVSSASTKGPSVFPLAPCSRSTSESTAALGCLVKDYFPEPVTVSWNSGALTSGVHTFPAVLQSSGLYSLSSVVTVPSSNFGTQTYTCNVDHKPSNTKVDKTVERKCCVECPPCPAPPVAGPSVFLFPPKPKDTLMISRTPEVTCVVVDVSQEDPEVQFNWYVDGVEVHNAKTKPREEQFNSTYRVVSVLTVLHQDWLNGKEYKCKVSNKGLPSSIEKTISKAKGQPREPQVYTLPPSQEEMTKNQVSLTCLVKGFYPSDIAVEWESNGQPENNYKTTPPVLDSDGSFFLYSRLTVDKSRWQEGNVFSCSVMHEALHNHYTQKSLSLSLG
light: DIQMTQSPSSLSASVGDRVTITCGASENIYGALNWYQQKPGKAPKLLIYGATNLADGVPSRFSGSGSGTDFTLTISSLQPEDFATYYCQNVLNTPLTFGQGTKVEIKRTVAAPSVFIFPPSDEQLKSGTASVVCLLNNFYPREAKVQWKVDNALQSGNSQESVTEQDSKDSTYSLSSTLTLSKADYEKHKVYACEVTHQGLSSPVTKSFNRGEC
notes: anti-C5 antibody, positive control in the hemolytic assay
effect on hemolysis of sheep erythrocytes (in words): almost completely inhibited hemolysis
